Test [1] concerns the target Amine oxidase [flavin-containing] B (Homo sapiens, UniProt P27338). Briefly: Inhibition of recombinant human MAO-B assessed as inhibition of kynuramine to 4-hydroxyquinoline conversion after 20 mins by fluorometry.
The species entered for test [2] is Homo sapiens. Briefly: Selectivity ratio of IC50 for recombinant human MAO-A to IC50 for recombinant human MAO-B. The gist of the method: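 This is a selectivity index for MAO-B, computed as IC50(MAO-A)/IC50(MAO-B). Both IC50s were measured fluorometrically on recombinant human enzymes as kynuramine conversion to 4-hydroxyquinoline, in triplicate.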

By UniProt entry, the sequences of proteins in these tests, tags left out.
UniProt P27338, whole entry: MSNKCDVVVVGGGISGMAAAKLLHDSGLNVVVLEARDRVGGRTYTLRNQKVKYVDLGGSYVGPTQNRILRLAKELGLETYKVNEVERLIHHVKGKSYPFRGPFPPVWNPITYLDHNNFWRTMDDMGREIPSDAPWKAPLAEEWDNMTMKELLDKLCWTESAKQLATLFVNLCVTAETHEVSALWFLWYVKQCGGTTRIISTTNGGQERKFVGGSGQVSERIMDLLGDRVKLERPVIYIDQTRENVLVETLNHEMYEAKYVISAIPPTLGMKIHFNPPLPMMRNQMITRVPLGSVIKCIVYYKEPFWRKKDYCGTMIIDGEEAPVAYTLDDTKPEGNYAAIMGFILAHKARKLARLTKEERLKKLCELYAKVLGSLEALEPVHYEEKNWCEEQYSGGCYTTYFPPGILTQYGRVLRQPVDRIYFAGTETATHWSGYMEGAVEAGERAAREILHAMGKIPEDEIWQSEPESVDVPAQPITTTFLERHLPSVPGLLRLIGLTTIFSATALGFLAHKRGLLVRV

For orientation: IC50 means the point on the concentration scale where inhibition reaches its midpoint. As to `O=C1CC(O)Oc2ccc(OCc3cccc(Br)c3)cc21` (configuration not stated), the IC50 in test [1] was determined as 5.7 nM. The Ratio IC50 in test [2] worked out at 269.

The record behind these values is ChEMBL document CHEMBL2062414, “Selected chromone derivatives as inhibitors of monoamine oxidase” (Bioorg Med Chem Lett, 2012).
